Data published in US20130216530A1, “Methods for optimizing biological response modifier therapy using therapeutic drug monitoring of immunosuppressants” (Exagen Diagnostics, Inc., priority 2012, published 2013).

Experiment: RBC MTXPG3 levels in RA patients measured by liquid chromatography
Assay type: in vivo, human
Conditions: all 61 RA patients on weekly MTX, red blood cells
Procedure: Adult RA patients receiving weekly MTX with infliximab for more than three months were enrolled in a cross sectional study. Blood was collected at trough before the infusion of infliximab. Red blood cell (RBC) MTXPGs were measured using liquid chromatography while circulating levels of infliximab were measured using a cell based assay. ATIs were measured using enzyme immunoassays. Statistical analysis consisted of regression analyses and Wilcoxon tests.
The study was cross sectional study in adult RA patients at three study sites (Brigham and Women's, Boston, Mass.; The Center for Rheumatology, Albany, N.Y.; and Altoona Center for Clinical Research, Altoona Pa.). […] RBC MTXPG3 were measured using a liquid chromatography developed and validated in our laboratory^9. Quantification limit was 5 nmol/L RBCs. Circulating levels of infliximab in serum were measured by Biomonitor (Copenhagen, DK) using a cell based assay consisting of erythroleukemic K562 cells transfected with a NFKB regulated firefly luciferase reporter-gene construct^10. Antibodies to infliximab (ATIs) were measured using a proprietary enzyme immunoassay technique (Biomonitor, Copenhagen, Denmark). The cutoff for positive ATI was 0.9 U/L. Anti-citrullinated peptide auto-antibodies levels (Anti-MCV) were measured using ELISA (Orgentec Diagnostika, Mainz, Germany). […]

methotrexate polyglutamate [MTXPG]
median RBC MTXPG3 levels: 28 nmol/L
